Assay results from US20070155746A1, “NOVEL SUBSTITUTED PYRIDINYLOXY AND PYRIMIDINYLOXY AMIDES USEFUL AS INHIBITORS OF PROTEIN KINASES” (KALYPSYS, INC., priority 2005, published 2007).

Amino acid sequences for entries named in this document (tags omitted). Residues count along the entry.
UniProt P15056, 416-766 limits assumed: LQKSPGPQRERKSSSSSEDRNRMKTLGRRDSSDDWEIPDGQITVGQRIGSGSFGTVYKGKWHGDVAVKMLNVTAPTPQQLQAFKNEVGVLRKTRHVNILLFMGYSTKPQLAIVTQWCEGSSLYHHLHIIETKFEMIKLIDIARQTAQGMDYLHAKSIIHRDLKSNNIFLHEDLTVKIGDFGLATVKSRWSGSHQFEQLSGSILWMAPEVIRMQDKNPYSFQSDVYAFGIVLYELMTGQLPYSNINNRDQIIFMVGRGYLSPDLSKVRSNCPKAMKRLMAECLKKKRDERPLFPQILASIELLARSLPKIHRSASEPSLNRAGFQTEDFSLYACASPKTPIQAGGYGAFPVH
UniProt P35968, 20-1356 limits assumed: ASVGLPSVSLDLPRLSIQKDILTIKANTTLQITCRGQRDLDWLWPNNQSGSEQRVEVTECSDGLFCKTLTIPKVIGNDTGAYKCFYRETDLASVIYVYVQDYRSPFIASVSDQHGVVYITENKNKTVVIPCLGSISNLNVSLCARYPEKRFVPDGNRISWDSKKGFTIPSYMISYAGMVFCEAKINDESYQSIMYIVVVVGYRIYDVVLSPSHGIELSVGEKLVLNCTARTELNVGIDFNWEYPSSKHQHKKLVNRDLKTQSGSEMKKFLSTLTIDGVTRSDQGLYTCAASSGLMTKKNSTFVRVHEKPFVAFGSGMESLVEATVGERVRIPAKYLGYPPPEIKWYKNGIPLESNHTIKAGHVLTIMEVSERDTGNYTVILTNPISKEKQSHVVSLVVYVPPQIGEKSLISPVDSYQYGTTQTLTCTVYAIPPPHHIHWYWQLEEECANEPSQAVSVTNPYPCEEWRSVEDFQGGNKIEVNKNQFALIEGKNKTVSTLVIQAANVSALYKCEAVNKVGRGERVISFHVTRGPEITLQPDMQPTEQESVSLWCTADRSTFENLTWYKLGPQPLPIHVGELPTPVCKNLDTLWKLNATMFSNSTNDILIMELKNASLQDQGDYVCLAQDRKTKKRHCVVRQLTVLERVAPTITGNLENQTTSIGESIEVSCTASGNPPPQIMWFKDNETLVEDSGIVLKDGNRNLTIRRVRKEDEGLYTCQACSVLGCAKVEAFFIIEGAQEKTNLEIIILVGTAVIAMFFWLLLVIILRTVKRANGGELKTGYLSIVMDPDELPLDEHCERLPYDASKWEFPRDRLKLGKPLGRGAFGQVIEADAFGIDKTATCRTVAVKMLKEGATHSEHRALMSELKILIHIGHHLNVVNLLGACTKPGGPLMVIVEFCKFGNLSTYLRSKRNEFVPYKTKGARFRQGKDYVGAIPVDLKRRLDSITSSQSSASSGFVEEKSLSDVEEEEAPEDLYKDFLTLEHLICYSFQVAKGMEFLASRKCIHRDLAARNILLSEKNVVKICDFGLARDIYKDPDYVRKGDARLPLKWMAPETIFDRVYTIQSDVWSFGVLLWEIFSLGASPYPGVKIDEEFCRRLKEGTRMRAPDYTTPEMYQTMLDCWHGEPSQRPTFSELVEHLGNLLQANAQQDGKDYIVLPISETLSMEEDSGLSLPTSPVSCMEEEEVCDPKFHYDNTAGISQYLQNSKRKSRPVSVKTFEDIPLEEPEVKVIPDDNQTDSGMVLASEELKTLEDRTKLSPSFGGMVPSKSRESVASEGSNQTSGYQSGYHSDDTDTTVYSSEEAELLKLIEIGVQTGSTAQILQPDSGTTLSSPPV
UniProt P09619, 33-1106 limits assumed: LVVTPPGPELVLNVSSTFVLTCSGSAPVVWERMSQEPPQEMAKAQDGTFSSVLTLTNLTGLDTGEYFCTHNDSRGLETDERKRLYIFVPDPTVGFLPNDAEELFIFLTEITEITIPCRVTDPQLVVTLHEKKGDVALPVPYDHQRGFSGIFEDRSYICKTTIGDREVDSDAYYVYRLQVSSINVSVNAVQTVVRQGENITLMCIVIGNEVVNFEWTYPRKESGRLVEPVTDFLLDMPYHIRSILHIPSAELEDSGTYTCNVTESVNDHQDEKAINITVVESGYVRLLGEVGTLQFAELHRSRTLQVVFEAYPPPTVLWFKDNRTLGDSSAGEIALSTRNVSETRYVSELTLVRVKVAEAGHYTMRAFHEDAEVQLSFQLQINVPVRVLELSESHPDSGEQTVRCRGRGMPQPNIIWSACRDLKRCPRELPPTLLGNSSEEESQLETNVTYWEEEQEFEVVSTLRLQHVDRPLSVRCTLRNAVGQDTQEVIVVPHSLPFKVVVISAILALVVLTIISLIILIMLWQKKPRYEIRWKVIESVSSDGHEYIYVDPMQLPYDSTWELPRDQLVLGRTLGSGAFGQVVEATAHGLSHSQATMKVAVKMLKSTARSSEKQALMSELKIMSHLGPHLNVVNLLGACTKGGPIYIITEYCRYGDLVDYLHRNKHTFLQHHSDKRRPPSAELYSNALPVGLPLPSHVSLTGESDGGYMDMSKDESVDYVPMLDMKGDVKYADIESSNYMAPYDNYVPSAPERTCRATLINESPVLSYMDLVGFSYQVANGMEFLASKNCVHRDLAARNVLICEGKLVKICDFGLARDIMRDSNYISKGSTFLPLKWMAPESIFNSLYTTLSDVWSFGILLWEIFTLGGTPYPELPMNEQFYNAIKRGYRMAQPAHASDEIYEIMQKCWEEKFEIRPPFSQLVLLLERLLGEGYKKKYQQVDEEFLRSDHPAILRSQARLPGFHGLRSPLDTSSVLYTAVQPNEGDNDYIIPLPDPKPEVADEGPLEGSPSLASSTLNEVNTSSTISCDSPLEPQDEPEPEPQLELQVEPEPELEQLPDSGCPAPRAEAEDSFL

How the values were obtained:
[1] = target: human B-Raf protein kinase (Homo sapiens, UniProt P15056); assay: In vitro B-Raf/Mek1 composite kinase assay; settings: read-out: B-Raf Kinase Assay IC50 μM
Description: In Vitro B-Raf/Mek1 Composite Kinase Assay
2.5 μl of B-Raf kinase buffer (20 mM MOPS [pH 7.2], 25 mM sodium glycerophosphate, 2 mM EGTA [pH 8.0], 1 mM sodium orthovanadate, 1 mM dithiothreitol, 10 mM MgCl2, 0.03% Brij-35, 0.3 mg/ml bovine serum albumin) containing lng of recombinant, N-terminal GST-tagged human B-Raf protein kinase (Δ1-415, Upstate Inc., cat. #14-530) is dispensed to wells of a 1536 multi-well white solid plate. 60 nl of 100× concentration of test compound in DMSO is dispensed to the well by passive pin transfer and incubated for 15 minutes at room temperature (approx. 22° C.). […] The assay plates are sealed and maintained in a humidified environment. After 2 hours, 2.5 μl of PKLight protein kinase assay reagent (Cambrex, cat. #LT07-501) is dispensed. After an additional 5 minute incubation at room temperature, luminescence activity is measured on a Molecular Devices Analyst multi-mode plate reader or other suitable plate reader. Kinase inhibition results in less ATP depletion, and therefore increased luminescence signal. Negative control activity is measured with DMSO lacking any test compound. The positive control is [N-(3-trifluoromethyl-4-chlorophenyl)-N′-(4-(2-methylcarbamoyl-pyridin-4-yl)oxyphenyl)urea], aka Bay 43-9006. Efficacy is measured as a percentage of positive control activity.

VEGFR2 kinase = VEGFR2 kinase (Homo sapiens, UniProt P35968); assay: In vitro VEGFR2 kinase assay; settings: read-out: VEGFR2 Assay IC50 μM
Description: (§1) In Vitro VEGFR2 and PDGFRP Kinase Assays
(§2) 2.5 μl of ADP Quest assay buffer (DiscoverX Inc., cat. #90-0071) containing 20 ng VEGFR2 kinase (Invitrogen Inc, cat. #PV3660) or 25 ng PDGFRβ kinase (Invitrogen Inc., cat. #P3082) is dispensed to wells of a 1536 multi-well, black solid plate. 60 nl of 100× concentration of test compound in DMSO is dispensed to the well by passive pin transfer and incubated for 10 minutes at room temperature (approx. 22° C.). 2.5 μl of ADP Quest assay buffer containing 0.25 μg of poly Glu:Tyr (4:1) substrate peptide (Upstate Inc., cat. #12-440) and 60 μM ATP is then dispensed and the kinase reaction allowed to incubate at 30° C. for 2 hours. […] After an additional 30 minute incubation at room temperature, fluorescence intensity is measured on a Molecular Devices Aquest multi-mode plate reader or other suitable plate reader (fluorescence excitation filter: 530/25 [Peak(nm)/FWHM passband(nm)]; dichroic beamsplitter: 561 nm longpass; fluorescence emission filter: 580/10 [Peak(nm)/FWHM passband(nm)]. The assay measures the conversion of a non-fluoresecent molecule to fluorescent resorufin, which correlates with kinase activity. Negative control activity is measured with DMSO lacking any test compound. The positive control is [N-(3-trifluoromethyl-4-chlorophenyl)-N′-(4-(2-methylcarbamoyl-pyridin-4-yl)oxyphenyl)urea], aka Bay 43-9006. […]

PDGFRβ kinase = PDGFRβ kinase (Homo sapiens, UniProt P09619); assay: In vitro PDGFRβ kinase assay; settings: read-out: PDGFRβ Assay IC50 μM
Description: as §1, §2

Measured: IC50

CCOc1cc(OCC)cc(C(=O)Nc2cccc(Oc3ccnc(-c4cnn(C)c4)c3)c2)c1
> 10 µM: all assays above
